Antibody variant affinities, Ab-95 light chain, assay 2

Data: MIT Lincoln Laboratory AlphaSeq set, Engelhart et al. 2022, doi:10.1038/s41597-022-01779-4, as distributed in FLAb.

Binding partner: SARS-CoV-2 spike HR2 peptide, sequence PDVDLGDISGINAS.

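The parent was found by panning a naive human phage display library on the peptide. Library AAYL52 holds single substitutions and randomly drawn double and triple substitutions in the CDRs. In AlphaSeq, yeast of one mating type display the scFv and yeast of the other type display the target. After mating in shaken culture at 30 °C for 16 h, diploids were selected and their barcode pairs sequenced. Scores were corrected for input abundance and mapped to Kd with protein pairs of known affinity run in the same pool. Mating was done three times.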

Parent scFv Ab-95: VH joined to VL by a (GGGGS)3 linker. Changes lie in the light chain CDRs alone.
VH: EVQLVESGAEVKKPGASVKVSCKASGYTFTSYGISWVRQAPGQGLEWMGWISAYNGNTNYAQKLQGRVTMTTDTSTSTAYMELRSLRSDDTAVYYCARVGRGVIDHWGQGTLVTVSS
VL: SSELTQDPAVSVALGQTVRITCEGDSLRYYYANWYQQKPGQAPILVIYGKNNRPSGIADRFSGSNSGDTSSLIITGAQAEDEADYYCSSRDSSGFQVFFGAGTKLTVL

Each variant is given by its three light chain CDRs, as the data file delimits them; those of the parent are EGDSLRYYYAN, GKNNRPS, SSRDSSGFQVF.
The read-out is the apparent dissociation constant on a log10 scale (nM): the lower, the stronger.
"ND" means that the variant was in the library but no mating with the target was seen in that replicate; the authors take this as a sign of poor binding, and no number exists.

CDR-L1 | CDR-L2 | CDR-L3 | log10 Kd, replicates | empty controls
EGDSCRYYYAN | GKNNRPS | TSRDSSGFQNF | 2.42 2.81 3.58 | 3/9 (4.36)
EGDSLRYYYAN | GPNNRPS | SPRDSSGFQVF | 2.24 2.88 2.83 | 1/9 (3.38)
EGDSLRYYYAN | GKNNRPS | SSRDSMQFQVF | 2.25 ND ND | 0/9
EGDDLRYYYAN | GKNNRPS | SSRDWSLFQVF | 4.55 3.24 ND | 2/9 (5.00)
EGDSLGYYYAN | GKNNRPS | SSRDSSGFQWF | 2.57 2.22 2.45 | 5/9 (3.92)
EGDSLRYYYAN | GKNNRPS | SSRDNHVFQVF | 4.12 3.41 ND | 4/9 (4.32)
EGDSLRYYYAN | TKNNRPS | SSRDSPDFQVF | ND ND ND | 3/9 (4.23)
EGVSLRYYYAN | GKWNRPS | SSRDSSGAQVF | 5.62 3.86 4.44 | 6/9 (3.92)
EGDFLRYQYAN | GKNNRPS | TSRDSSGFQVF | 2.05 2.04 1.94 | 5/9 (4.03)
EGDSLRYYYAN | GKNNRPS | SGRDSMGFHVF | 3.23 2.67 3.19 | 1/9 (3.25)
EGHSERYYYAN | GKNNRPS | SSDDSSGFQVF | ND ND ND | 2/9 (4.08)
EGYSLRYYLAN | GKNNRCS | SSRDSSGFQVF | 3.48 3.21 4.37 | 4/9 (4.03)
EGDSLRYNYAN | GKNNFPS | SSRYSSGFQVF | 2.32 1.62 2.06 | 3/9 (3.88)
EGDSLRPYYAN | GKNNRPS | SSGDSSGFQVV | 4.50 ND ND | 0/9
EGDCLRYYYDN | GKNNGPS | SSRDSSGFQVF | 4.55 ND 2.32 | 7/9 (3.92)
EGDSLRYYYCN | GKENRPS | YSRDSSGFQVF | 4.08 4.00 ND | 4/9 (3.48)
EGTSLRYYYAN | GKNNRPS | SSADSSLFQVF | 4.10 ND ND | 2/9 (3.97)
EGRSLRYYYAN | GKNNRPS | SLRDSEGFQVF | 3.78 3.56 3.18 | 2/9 (3.53)
EGDSLRYYYAY | GKNNRPS | SSRPSSSFQVF | 4.14 ND ND | 5/9 (4.50)
EGDSLHIYYAN | GKANRPS | SSRDSSGFQVF | 3.45 3.90 2.66 | 3/9 (4.60)
EGDSLRYYYAN | GKNNRPW | SKRDPSGFQVF | 3.64 5.72 ND | 1/9 (5.23)
EGDSLRYKYMN | GKNNRPS | SSRISSGFQVF | ND ND ND | 2/9 (4.54)
EGDSLRYYYAN | GKNNRPS | SSRDSIGGQVF | 3.23 2.92 2.52 | 2/9 (3.65)
PGDSLRYYYAN | GKNNRPS | SSRDSSLFQVF | ND ND ND | 3/9 (3.98)
EGDTLRYYYAN | GKNNRPS | NSRDSEGFQVF | 2.69 ND ND | 4/9 (3.35)
EGDSLRYYYAI | GKNNRPS | SERDSIGFQVF | 3.99 4.19 ND | 1/9 (4.57)
ETDSLNYYYAN | DKNNRPS | SSRDSSGFQVF | ND ND ND | 0/9
EGDSLRYYYVN | GKNCRPS | SQRDSSGFQVF | 5.71 5.34 4.42 | 4/9 (4.10)
EGDSLRYYYAN | GKNNRTS | TCRDSSGFQVF | ND ND ND | 3/9 (3.42)
FGDSLRYYYAN | GKNNRPS | SSRDLSDFQVF | 2.80 3.43 3.17 | 3/9 (3.52)
IGDSLRYYMAN | GKNNWPS | SSRDSSGFQVF | 3.38 3.58 3.41 | 2/9 (3.77)
EGDSLRYYYAA | GKDNRPS | SSRDHSGFQVF | 3.45 4.09 ND | 3/9 (4.16)
EGDSFRFYYAN | GINNRPS | SSRDSSGFQVF | 5.18 ND ND | 5/9 (4.24)
EGGSLRYYYAN | HKNNRPS | SSRDSSGFQVA | ND ND 4.33 | 3/9 (3.48)
EGDSLRYYYAN | GKNNRPS | SFRDSSGFQVF | 2.75 2.95 3.00 | 4/9 (3.21)
EGDSLRYYYAN | GKNNKPS | SPRDSSGFVVF | ND ND ND | 1/9 (3.64)
EGDSLRYYMAF | GKNNDPS | SSRDSSGFQVF | ND ND ND | 2/9 (3.78)
EGDSLRYYYAN | GKNNRPS | SSRDSSSFMVF | 2.28 2.20 2.78 | 2/9 (3.19)
ENDSLRYYYAN | GKNNRPS | SNRDSPGFQVF | 5.34 3.07 2.83 | 1/9 (4.19)
SGDSLRYYYAN | GKNNRFS | SSGDSSGFQVF | 2.42 2.50 2.17 | 4/9 (4.26)
EGDSEWYYYAN | GKNNRPS | SSLDSSGFQVF | 4.47 ND ND | 3/9 (3.91)
FGDSLAYYYHN | GKNNRPS | SSRDSSGFQVF | ND ND ND | 3/9 (4.46)
EGGSERYYYAN | GKNNRPS | SSHDSSGFQVF | 3.51 ND ND | 3/9 (4.32)
EGDSLRYYYAN | GKNNRPS | SSRDSQGFQVY | 3.08 3.70 2.67 | 5/9 (3.62)
EGDSLRYYYAN | EKNNRPS | SQRDSSGFQVF | 3.25 3.68 ND | 2/9 (4.00)
EGDSLRYQYAN | GQNNRPS | SSRDSRGFQVF | 1.16 1.19 0.74 | 5/9 (4.39)
KGDSLRYYYAN | GKNNRPS | SGRDHSGFQVF | 1.74 1.39 1.41 | 2/9 (3.80)

Nonspecific signal, from three strains lacking the peptide, appeared in 28% of pairings of library AAYL52, centred on 3.91 (5% of these signals below 2.90); values are not corrected for it. The control count says in how many pairings with the empty strains this scFv gave a signal, with their mean in brackets.
Parent in this assay: reference entry 2.31, copy in this library 2.25.